The series is filed under the species Homo sapiens. As to the kind of experiment: Protein binding in human plasma by equilibrium dialysis method. Particulars: read-out: PPB (converted). (In equilibrium dialysis only unbound substance equilibrates across the membrane.)

As for `O=C(O)/C=C/c1ccc(NC(=O)C2(NC(=O)c3ccc4c(c3)nc(-c3ccoc3)n4C3CCCCC3)CCCC2)cc1`, the fraction unbound is 0.038.
